Molecular target: T1, His6-StBax1 (Sulfolobus tokodaii Bax1) (Sulfolobus tokodaii, UniProt Q970I1 1-481)
T1 sequence (looked up): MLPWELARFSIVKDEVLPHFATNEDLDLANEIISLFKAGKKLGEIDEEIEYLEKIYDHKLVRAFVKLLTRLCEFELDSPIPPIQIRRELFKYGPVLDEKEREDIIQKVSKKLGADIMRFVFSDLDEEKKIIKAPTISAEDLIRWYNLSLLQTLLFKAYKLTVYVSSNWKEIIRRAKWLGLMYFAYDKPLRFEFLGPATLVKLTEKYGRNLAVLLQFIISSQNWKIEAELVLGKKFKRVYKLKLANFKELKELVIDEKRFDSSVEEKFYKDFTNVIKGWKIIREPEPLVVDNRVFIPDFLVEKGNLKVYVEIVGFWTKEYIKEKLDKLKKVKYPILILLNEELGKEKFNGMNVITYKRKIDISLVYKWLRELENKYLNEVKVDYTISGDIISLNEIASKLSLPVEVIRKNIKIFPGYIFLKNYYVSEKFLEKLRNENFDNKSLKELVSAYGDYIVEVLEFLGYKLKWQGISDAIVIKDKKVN
Test: cell-based or functional assay

B1: His6-StXPB (Sulfolobus tokodaii XPB, XPBII) (enzyme, UniProt Q970I2 1-439, looked up)
chain: MVYLRYFKGLILSDAYAPGLKWSDELKAYSALAFKYRDVRKYFLEKEIEVEENVIDSLPFPLIKDKIELRDYQAEAVKAWLKEKRGIIVLPTGAGKTQVALKIVSIMKVATLIVVPTIDLITQWKERINKYLDFDPGIIGGGEDSLKGITVITYDSAYTRAEELGNKFPLLIFDEVHHLPSEGYSIMAQLFASPYRLGLTATPERDDGKHELYPILVGPIVYRKSVEELAGKYIAKYKIKKLYVSLTNEEKKRYDGLRKKLKDFLSSRGLKLQNLDDFHRLVKLAAKDKEAREALLAWHESLNIAVNSQSKIEKLREILQEYKNEKIIVFTRDTQMAYRISKTFLIPVVTYKTDKDEREEILQKFRDGEYRVIVASTVFDEGVDVPDATLAIVMGGYGTKRQFLQRLGRILRKKDKEALLIEIVTKGTADYRLSRRRRE
notes: residues 1 through 439 and up to 5 residues of the 6xHis-tag are seen in the crystal; also called wild type StXPB; source: E. coli Rosetta (DE3) pLysS, from pET15b, purified (heat step, ammonium sulfate, HisTrap, HiTrap SP, Sephacryl S-200)
- ATPase activity of StXPB in the StXPB-Bax1 complex against StXPB alone: 5 fold
